Experimental data reported in patent publication US8738114B2, “Systems and methods for measuring and modeling in vivo manganese ion transport in a subject” (Celtrast LLC, priority 2009, dated 2014).
Read-outs that look alike come from different tables or passages of the source.

Legend:
[1] = not given; remark: listed apart in the source
[2] = Model 1, 65 nmoles/g MnCl2 i.v. infusion
[3] = Model 1, 119 nmoles/g MnCl2 i.v. infusion
[4] = Model 1, 190 nmoles/g MnCl2 i.v. infusion
[5] = Model 1, 280 nmoles/g MnCl2 i.v. infusion
[6] = Model 2, 65 nmoles/g MnCl2 i.v. infusion
[7] = Model 2, 119 nmoles/g MnCl2 i.v. infusion
[8] = Model 2, 190 nmoles/g MnCl2 i.v. infusion
[9] = Model 2, 280 nmoles/g MnCl2 i.v. infusion
[10] = Model 3, 65 nmoles/g MnCl2 i.v. infusion
[11] = Model 3, 119 nmoles/g MnCl2 i.v. infusion
[12] = Model 3, 190 nmoles/g MnCl2 i.v. infusion
[13] = Model 3, 280 nmoles/g MnCl2 i.v. infusion

manganese chloride [MnCl2]
k10 transfer rate parameter (Mn^2+ efflux from blood to organs other than heart) [2]: 5.9 h⁻¹ | k12 transfer rate parameter (blood to heart, influx) [2]: 0.04/0.04/0.04 h^−1 | k21(a,) transfer rate parameter (heart to blood, efflux) [2]: 0.08 h⁻¹ | k10 transfer rate parameter (Mn^2+ efflux from blood to organs other than heart) [3]: 6.5 h⁻¹ | k12 transfer rate parameter (blood to heart, influx) [3]: 0.06 h⁻¹ | k21(a,) transfer rate parameter (heart to blood, efflux) [3]: 0.11 h⁻¹ | k10 transfer rate parameter (Mn^2+ efflux from blood to organs other than heart) [4]: 6.4 h⁻¹ | k12 transfer rate parameter (blood to heart, influx) [4]: 0.06/0.06/0.06 h^−1 | k21(a,) transfer rate parameter (heart to blood, efflux) [4]: 0.22 h⁻¹ | k10 transfer rate parameter (Mn^2+ efflux from blood to organs other than heart) [5]: 6.9/6.9/6.9 h^−1 | k12 transfer rate parameter (blood to heart, influx) [5]: 0.07/0.07/0.07 h^−1 | k21(a,) transfer rate parameter (heart to blood, efflux) [5]: 0.37 h⁻¹ | k10 transfer rate parameter (Mn^2+ efflux from blood to organs other than heart) [6]: 6.0 h⁻¹ | k12 transfer rate parameter (blood to heart, influx) [6]: 0.04/0.04/0.04 h^−1 | k21(a,) transfer rate parameter (free cytosol to blood, efflux) [6]: 0.51 h⁻¹ | k23 transfer rate parameter (uptake into cytosolic compartments) [6]: 12.4 h⁻¹ | k32 transfer rate parameter (release from cytosolic compartments) [6]: 2.4 h⁻¹ | k10 transfer rate parameter (Mn^2+ efflux from blood to organs other than heart) [7]: 6.1 h⁻¹ | k12 transfer rate parameter (blood to heart, influx) [7]: 0.05 h⁻¹ | k21(a,) transfer rate parameter (free cytosol to blood, efflux) [7]: 0.54 h⁻¹ | k23 transfer rate parameter (uptake into cytosolic compartments) [7]: 11.8 h⁻¹ | k32 transfer rate parameter (release from cytosolic compartments) [7]: 3.1 h⁻¹ | k10 transfer rate parameter (Mn^2+ efflux from blood to organs other than heart) [8]: 6.7 h⁻¹ | k12 transfer rate parameter (blood to heart, influx) [8]: 0.06/0.06/0.06 h^−1 | k21(a,) transfer rate parameter (free cytosol to blood, efflux) [8]: 0.62 h⁻¹ | k23 transfer rate parameter (uptake into cytosolic compartments) [8]: 7.4 h⁻¹ | k32 transfer rate parameter (release from cytosolic compartments) [8]: 4.3 h⁻¹ | k10 transfer rate parameter (Mn^2+ efflux from blood to organs other than heart) [9]: 6.9/6.9/6.9 h^−1 | k12 transfer rate parameter (blood to heart, influx) [9]: 0.07/0.07/0.07 h^−1 | k21(a,) transfer rate parameter (free cytosol to blood, efflux) [9]: 0.91 h⁻¹ | k23 transfer rate parameter (uptake into cytosolic compartments) [9]: 5.9 h⁻¹ | k32 transfer rate parameter (release from cytosolic compartments) [9]: 4.5 h⁻¹ | rate of Mn^2+ uptake into the intracellular compartments relative to the efflux rate (Model 2 prediction): approximately 12 times | k10 transfer rate parameter (Mn^2+ efflux from blood to organs other than heart) [10]: 6.0 h⁻¹ | k12 transfer rate parameter (blood to heart, influx) [10]: 0.04/0.04/0.04 h^−1 | k21(a,) transfer rate parameter (free cytosol to blood, efflux; k21a = NCX in Model 3) [10]: 0.60 h⁻¹ | k23 transfer rate parameter (free cytosol to sarcoplasmic reticulum) [10]: 0.60 h⁻¹ | k24 transfer rate parameter (free cytosol to mitochondria) [10]: —/—/0.07 h^−1 | k32 transfer rate parameter (sarcoplasmic reticulum to free cytosol) [10]: 0.19 h⁻¹ | k42 transfer rate parameter (mitochondria to free cytosol) [10]: —/—/0.31 h^−1 | k10 transfer rate parameter (Mn^2+ efflux from blood to organs other than heart) [11]: 6.5 h⁻¹ | k12 transfer rate parameter (blood to heart, influx) [11]: 0.05 h⁻¹ | k21(a,) transfer rate parameter (free cytosol to blood, efflux; k21a = NCX in Model 3) [11]: 0.58 h⁻¹ | k23 transfer rate parameter (free cytosol to sarcoplasmic reticulum) [11]: 0.61 h⁻¹ | k24 transfer rate parameter (free cytosol to mitochondria) [11]: —/—/0.07 h^−1 | k32 transfer rate parameter (sarcoplasmic reticulum to free cytosol) [11]: 0.28 h⁻¹ | k42 transfer rate parameter (mitochondria to free cytosol) [11]: —/—/0.37 h^−1 | k10 transfer rate parameter (Mn^2+ efflux from blood to organs other than heart) [12]: 6.6 h⁻¹ | k12 transfer rate parameter (blood to heart, influx) [12]: 0.06/0.06/0.06 h^−1 | k21(a,) transfer rate parameter (free cytosol to blood, efflux; k21a = NCX in Model 3) [12]: 0.71 h⁻¹ | k23 transfer rate parameter (free cytosol to sarcoplasmic reticulum) [12]: 0.48 h⁻¹ | k24 transfer rate parameter (free cytosol to mitochondria) [12]: —/—/0.05 h^−1 | k32 transfer rate parameter (sarcoplasmic reticulum to free cytosol) [12]: 0.37 h⁻¹ | k42 transfer rate parameter (mitochondria to free cytosol) [12]: —/—/0.75 h^−1 | k10 transfer rate parameter (Mn^2+ efflux from blood to organs other than heart) [13]: 6.9/6.9/6.9 h^−1 | k12 transfer rate parameter (blood to heart, influx) [13]: 0.07/0.07/0.07 h^−1 | k21(a,) transfer rate parameter (free cytosol to blood, efflux; k21a = NCX in Model 3) [13]: 0.79 h⁻¹ | k23 transfer rate parameter (free cytosol to sarcoplasmic reticulum) [13]: 0.41 h⁻¹ | k24 transfer rate parameter (free cytosol to mitochondria) [13]: —/—/0.05 h^−1 | k32 transfer rate parameter (sarcoplasmic reticulum to free cytosol) [13]: 0.57 h⁻¹ | k42 transfer rate parameter (mitochondria to free cytosol) [13]: —/—/0.87 h^−1 | blood pool clearance (post-MnCl2 infusion): ~12 min | approximate efflux transfer rate k21 for the infarcted region ([1]; MI mice, 190 nmoles/g MnCl2, from linear fit Eq. [15] at equivalent dose of approximately 400 nmoles/g): ~0.52 h⁻¹ | efflux transfer rate k21 for the viable region ([1]; same infusion dose (190 nmoles/g MnCl2)): 0.22 h⁻¹
